The results in this text go back to patent publication US6395256B1 (priority 1997, dated 2002).

The target of experiment [1] is T1, reduced SAH hydrolase (Bos taurus, UniProt Q3MHL4).
T1 construct: SAH hydrolase is purified with classical chromatographical methods to homogeneity from organs e.g. from bovine kidney; from tissue; host or cells: bovine kidney
T1 sequence (Q3MHL4 2-432 limits assumed): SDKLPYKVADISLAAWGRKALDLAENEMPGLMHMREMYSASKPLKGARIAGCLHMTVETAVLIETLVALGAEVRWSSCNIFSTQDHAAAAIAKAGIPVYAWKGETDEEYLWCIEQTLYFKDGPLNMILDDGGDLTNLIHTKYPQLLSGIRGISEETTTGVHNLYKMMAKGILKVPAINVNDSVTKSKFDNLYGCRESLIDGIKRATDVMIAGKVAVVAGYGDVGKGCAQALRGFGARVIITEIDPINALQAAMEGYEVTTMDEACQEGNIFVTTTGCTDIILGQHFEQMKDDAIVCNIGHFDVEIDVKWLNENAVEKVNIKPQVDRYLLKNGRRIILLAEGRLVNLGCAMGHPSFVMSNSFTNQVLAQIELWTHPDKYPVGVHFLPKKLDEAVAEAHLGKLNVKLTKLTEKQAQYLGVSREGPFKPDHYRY
The experiment can be described thus: 3H-adenosine displacement using reduced SAH hydrolase. It counts as binding, bovine. The method, then:
100 μl reduced SAH hydrolase (1 μg/300 μl)
50 μl buffer—20 mM Tris, 40 mM Hepes pH 7.0
Therefore the samples are incubated over night. The assay mixture is separated through nitrocellulose filters with a filtration equipment.

Experiment [2] addresses T2, active SAH hydrolase (Bos taurus, UniProt Q3MHL4).
T2 construct: SAH hydrolase is purified with classical chromatographical methods to homogeneity from organs e.g. from bovine kidney; from tissue; host or cells: bovine kidney
T2 sequence (Q3MHL4 2-432 limits assumed): T1 sequence (Q3MHL4 2-432 limits assumed)
Kind of experiment: 3H-adenosine displacement using active SAH hydrolase. The format is binding, bovine. As for the experimental part: SAH hydrolase is purified with classical chromatographical methods to homogeneity from organs e.g. from bovine kidney. Fresh bovine kidney (450 g), obtained from the local slaughterhouse were homogenized in two volumes of 50 mM potassium phosphate buffer pH 7.0, 1 mM DTT, 1 mM EDTA and 10 mM PMSF. The homogenate was centrifuged at 20000×g for 60 min. […] After centrifugation at 20000×g for 30 min the precipitate was disolved in 300-400 ml 20 mM Tris/HCl pH 7.5, 1 mM DTT and 1 mM EDTA and dialyzed against the same buffer.

As usually defined, the EC50 is the concentration that produces a half-maximal response.

On to diadenosine-diphosphate, for which the EC50 was found to be 10 µM in experiment [1] and 0.138 µM in experiment [2].
